Test system: VEGF
Experiment: VEGF ELISA Assay in HEK293 cells
Format: cell-based
Details: Homo sapiens, head prints IC50, method calculates EC50 from % of DFO stimulation
Method: HEK293 cells are seeded in 96-well poly-lysine coated plates at 20,000 cells per well in DMEM (10% FBS, 1% NEAA, 0.1% glutamine). Following overnight incubation, the cells are washed with 100 μL of Opti-MEM (Gibco, Carlsbad, Calif.) to remove serum. Compound in DMSO is serially diluted (beginning with 100 μM) in Opti-MEM and added to the cells. The conditioned media is analyzed for VEGF with a Quantikine human VEGF immunoassay kit (R&D Systems, Minneapolis, Minn.). Optical density measurements at 450 nm are recorded using the Spectra Max 250 (Molecular Devices, Sunnyvale, Calif.). Data defined as % of DFO stimulation is used to calculate EC50 values with GraphPad Prism 4 software (San Diego, Calif.).

`CC(NCc1ccn(Cc2ccccc2)c(=O)c1O)c1ccccc1` (centres unmarked) [Compound C14, 1-benzyl-3-hydroxy-4-[(1-phenylethylamino)methyl]pyridin-2(1H)-one] showed an IC50 of 20.6 µM.
Work on `O=c1c(O)c(CNCCCn2ccnc2)ccn1Cc1ccccc1` [Compound C35, 1-benzyl-3-hydroxy-4-{[3-(1H-imidazol-1-yl)propylamino]methyl}pyridin-2(1H)-one] yielded an IC50 of 42.5 µM.

— patent publication US10562854B2, “Prolyl hydroxylase inhibitors” (Aerpio Therapeutics, Inc., priority 2009, dated 2020)
